{"sequences": {"note": "Protein sequences, listed by entry. Tags and fused reporters are not part of them. Lines headed by an entry give the natural chain unless they say otherwise; changes in a name come on top.", "UniProt P51450": "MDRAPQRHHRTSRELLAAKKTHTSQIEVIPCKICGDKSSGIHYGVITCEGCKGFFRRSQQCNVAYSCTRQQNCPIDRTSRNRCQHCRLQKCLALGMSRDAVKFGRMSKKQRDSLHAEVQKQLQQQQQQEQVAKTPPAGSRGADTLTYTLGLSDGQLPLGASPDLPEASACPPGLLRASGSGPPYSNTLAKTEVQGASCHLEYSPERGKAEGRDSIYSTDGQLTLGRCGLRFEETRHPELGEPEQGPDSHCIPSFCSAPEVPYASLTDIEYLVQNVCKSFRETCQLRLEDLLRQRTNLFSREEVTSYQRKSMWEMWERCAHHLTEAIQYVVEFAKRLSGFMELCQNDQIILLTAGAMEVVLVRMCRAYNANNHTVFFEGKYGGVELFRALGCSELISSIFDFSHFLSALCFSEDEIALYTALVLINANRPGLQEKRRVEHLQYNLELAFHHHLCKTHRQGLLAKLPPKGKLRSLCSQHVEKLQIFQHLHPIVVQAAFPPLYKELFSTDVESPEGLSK"}, "source": "PubChem BioAssay AID2551", "about": "(National Center for Advancing Translational Sciences (NCATS), 2010)", "note": "This is a selection; strong and weak results do not stand in their true shares. Inconclusive results are not listed. Active and inactive are the calls of the source. Calls come from the whole dose curve; as a rule, active = well fitted inhibition curve with a large enough effect; inconclusive = small, poorly fitted or top-dose-only effect, or effect the other way; inactive = no such curve, though single readings can be large or run the other way. Potency is the fitted concentration of half-maximal effect.", "data": [{"biological_target": "Nuclear receptor ROR-gamma (Mus musculus) (UniProt P51450)", "assay": "qHTS for inhibitors of ROR gamma transcriptional activity; note: nearly all actives have a fitted effect of over 60% in size", "conditions": "Drosophila S2 Gal4-RORgamma UAS-luciferase reporter, 20 h", "values": [{"smiles": "COc1ccc(Nc2nc(Nc3ccc(OC)cc3)nc(SC3=NCCS3)n2)cc1", "Potency": "active: 3.98 µM"}]}]}
